Measurements published in publication doi:10.1101/2024.07.29.605666v2, “Effects of two different compounds on seizure suppression using the zebrafish PTZ-seizure model” (bioRxiv, 2024).

Test system: zebrafish larvae
Assay: Bio-distribution of fluorescently labelled peptides by fluorescence microscopy
Format: in vivo, zebrafish (Danio rerio)
Conditions: TMR-labelled tripeptide 10 μg/ml in water, 6 dpf larvae, 1, 6, 18 and 24 h exposure, 26±2°C, n=3 each time
Procedure: Bio-distribution analysis was conducted on Tripeptide and CX2, labeled with tetramethylrhodamine-TMR and carboxytetramethylrhodamine – TAMRA, respectively.
Larvae at 6 dpf were transferred to a 96-well plate, with one larva per well, containing 100 μL of aquarium water. Subsequently, 100 μL of the Tripeptide compound at 20 μg/mL or CX2 at 1 μM was added according to the respective group, totalizing 200 ml of solution at final concentration of 10 μg/ml for Tripeptide and 0.5 μM for CX2. Exposure times for both compound groups were 1, 6, 18, and 24 hours (n=3 each time). The control group underwent similar manipulation but in water only. The incubation temperature during the experiments was maintained at 26±2°C. upon completion of exposure, larvae were rapidly and carefully transferred to a Becker containing 0.02% tricaine (Tricaine, Sigma) for approximately 2 minutes. Subsequently, the larvae were transferred to a Petri dish containing 1% agarose as a base, along with a drop of water. Larvae were examined and photographed using the Multizoon AZ100 microscope (Nikon, Tokyo, Japan) at 2X magnification. Two photographs of each larva were taken, one in black and white, and the other capturing only the fluorescence emission. Imaging merging was performed using the NIS-Elements software (Nikon, Tokyo, Japan). […]

Glu-Val-Trp [Tripeptide]
detection in the brain (fluorescence): did not reach the brain | distribution in the body (fluorescence): predominantly retained in the zebrafish intestine
